Measurements from patent US9326520B2, “Pest repellent comprising geranylacetone” (The University Court of the University of Aberdeen, priority 2006, dated 2016).

Test system: Aedes aegypti host-seeking female mosquitoes
Test: Y-tube olfactometer: response of mosquitoes to hand of attractive volunteer with and without chemical
Details: in vivo
From the text: FIG. 5. […] (−1=1×10^−1 g μL^−1; −2=1×10^−2 g μL^−1, etc). Back transformed means+95% confidence intervals (calculated for a binomial distribution) from the logistic scale are shown.
A convenient bioassay was established following work by Geier et al. (1999)^17 using a Y-tube olfactometer in which mosquitoes, Ae. aegypti, could “choose” between volatile skin emanations and air alone, the “choice” being expressed as flight activity or relative attraction. Initially, the source of skin emanations was from individual hands of a series of human volunteers.
These compounds (from Sigma Aldrich) were tested individually at different concentrations in the olfactometer against Ae. aegypti. The upwind flight activity, relative attraction and probing activity (feeding) of the mosquitoes to the hand of an attractive volunteer with and without the chemicals was recorded.

CC(=O)CCC=C(C)C [6-methyl-5-hepten-2-one, 6-Methyl-5-hepten-2-one]
probing activity (feeding): significantly reduced
